Ab-91 heavy chain CDR variants: yeast mating affinities

Target: peptide PDVDLGDISGINAS, taken from heptad repeat 2 (HR2) of SARS-CoV-2 spike.

Each scFv is VL, a (GGGGS)3 linker, VH, as in the parent Ab-91, and differs from it in the CDRs of the heavy chain only.
VL: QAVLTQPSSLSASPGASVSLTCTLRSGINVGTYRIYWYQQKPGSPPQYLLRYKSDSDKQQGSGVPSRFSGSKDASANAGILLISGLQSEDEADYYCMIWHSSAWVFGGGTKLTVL
VH: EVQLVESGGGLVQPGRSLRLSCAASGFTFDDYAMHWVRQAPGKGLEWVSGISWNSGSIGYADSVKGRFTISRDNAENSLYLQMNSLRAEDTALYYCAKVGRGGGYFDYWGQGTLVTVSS

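AAYL51 was designed without a model: most single CDR substitutions and a random sample of double and triple ones. Affinity was read by AlphaSeq, a pooled yeast mating assay with surface-displayed partners. Mating (16 h, 30 °C) was followed by selection of diploids and sequencing of their barcodes. A regression on co-assayed BCL2-family reference pairs converts the normalised counts of each replicate to an apparent Kd. Each pool was mated in three replicate cultures.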

Positions count from residue 1 of the parent VH; F27R puts R in place of F. The read-out is the apparent dissociation constant on a log10 scale (nM): the lower, the stronger. "ND" marks a missing value. The strain was present, yet no cells mated with the target were sequenced in that replicate, which points to weak or no binding. Background: pairings of library AAYL51 with three empty control strains gave a value in 21% of cases (median 4.54, 5th percentile 3.26). Values in that range, when seen in few replicates, are hard to tell from nonspecific mating. The control count says in how many pairings with the empty strains this scFv gave a signal, with their mean in brackets.

{"changes": "F27R+D31H+G102R", "log10 Kd, replicates": "5.03 / 4.64 / 3.99", "signal with controls": "3/9 (4.35)"}
{"changes": "S57W+I58F+G59P", "log10 Kd, replicates": "ND / ND / ND", "signal with controls": "2/9 (4.22)"}
{"changes": "T28F+H35E+Y108R", "log10 Kd, replicates": "3.31 / 4.37 / ND", "signal with controls": "1/9 (3.79)"}
{"changes": "F27V+A33V+S63W", "log10 Kd, replicates": "ND / 4.27 / ND", "signal with controls": "3/9 (3.60)"}
{"changes": "G50K+V99I", "log10 Kd, replicates": "4.55 / 3.32 / ND", "signal with controls": "3/9 (4.58)"}
{"changes": "M34K+S52Y+V99S", "log10 Kd, replicates": "ND / ND / ND", "signal with controls": "0/9"}
{"changes": "D31Q+G50S+G59C", "log10 Kd, replicates": "ND / ND / ND", "signal with controls": "1/9 (4.96)"}
{"changes": "H35K+S63Q+V64P", "log10 Kd, replicates": "ND / 5.30 / 5.25", "signal with controls": "2/9 (4.92)"}
{"changes": "M34V+G50R+S63V", "log10 Kd, replicates": "ND / 5.42 / ND", "signal with controls": "3/9 (4.44)"}
{"changes": "N54I+A61N+G104L", "log10 Kd, replicates": "ND / ND / ND", "signal with controls": "0/9"}
{"changes": "I58M+D62M+G100M", "log10 Kd, replicates": "2.03 / 2.38 / 2.28", "signal with controls": "2/9 (4.08)"}
{"changes": "D31P+F106C+D107G", "log10 Kd, replicates": "2.87 / 2.57 / 3.11", "signal with controls": "3/9 (4.19)"}
{"changes": "D31K+D62W", "log10 Kd, replicates": "1.48 / 1.50 / 1.10", "signal with controls": "1/9 (3.75)"}
{"changes": "F27T+D62Y+V99F", "log10 Kd, replicates": "6.36 / 4.30 / ND", "signal with controls": "5/9 (4.73)"}
{"changes": "G50W+N54Y+F106K", "log10 Kd, replicates": "4.59 / 5.36 / ND", "signal with controls": "5/9 (4.60)"}
{"changes": "I51F+W53D+N54Y", "log10 Kd, replicates": "ND / ND / ND", "signal with controls": "1/9 (5.64)"}
{"changes": "G50K+S55C+G56R", "log10 Kd, replicates": "5.06 / 4.36 / 5.48", "signal with controls": "3/9 (4.66)"}
{"changes": "W53H+R101T+F106G", "log10 Kd, replicates": "2.71 / 2.55 / 2.54", "signal with controls": "1/9 (5.91)"}
{"changes": "F29D+G100Q+F106I", "log10 Kd, replicates": "4.22 / ND / ND", "signal with controls": "1/9 (4.48)"}
{"changes": "V64G+G100V+F106H", "log10 Kd, replicates": "ND / ND / 4.33", "signal with controls": "0/9"}
{"changes": "G26I+D30F+F106V", "log10 Kd, replicates": "ND / ND / ND", "signal with controls": "0/9"}
{"changes": "I51Q+V99F+F106Y", "log10 Kd, replicates": "4.88 / ND / 5.18", "signal with controls": "4/9 (4.70)"}
{"changes": "F27E+G56N+D107C", "log10 Kd, replicates": "ND / 6.49 / 4.36", "signal with controls": "5/9 (4.91)"}
{"changes": "W53M+S63K+R101V", "log10 Kd, replicates": "ND / ND / ND", "signal with controls": "0/9"}
{"changes": "I51P+Y108G", "log10 Kd, replicates": "ND / ND / ND", "signal with controls": "2/9 (5.14)"}
{"changes": "T28E+G100T+G103V", "log10 Kd, replicates": "ND / ND / ND", "signal with controls": "2/9 (2.84)"}

The opening 4 entries, copied out:

{"changes": "F27R+D31H+G102R", "log10 Kd, replicates": "5.03 / 4.64 / 3.99", "signal with controls": "3/9 (4.35)"}
{"changes": "S57W+I58F+G59P", "log10 Kd, replicates": "ND / ND / ND", "signal with controls": "2/9 (4.22)"}
{"changes": "T28F+H35E+Y108R", "log10 Kd, replicates": "3.31 / 4.37 / ND", "signal with controls": "1/9 (3.79)"}
{"changes": "F27V+A33V+S63W", "log10 Kd, replicates": "ND / 4.27 / ND", "signal with controls": "3/9 (3.60)"}

In this assay the parent's reference entry averaged 1.86; its copy inside this library read 0.88.

The measurements come from Engelhart et al. 2022 (doi:10.1038/s41597-022-01779-4) through the FLAb antibody collection.